From patent US20240293304A1, “SULFONATE-FUNCTIONALIZED ALKYL POLYGLUCOSIDES AS SULFATE-FREE SURFACTANTS FOR TOOTHPASTE AND MOUTHWASH” (Colonial Chemical, Inc., priority 2021, published 2024)

Test system: In vitro epidermal keratinocytes
Format: cell-based

ET-50: ≥ 256 min
Substance: sorbitan oleate decylglucoside crosspolymer [Poly Suga®Mulse D9]
